Target: purified human plasma kallikrein (Homo sapiens (Human), UniProt P03952)
Conditions: read-out: Plasma Kallikrein Ki

The chains behind the UniProt entries cited, without tags or fusion partners.
UniProt P03952, whole entry, looked up: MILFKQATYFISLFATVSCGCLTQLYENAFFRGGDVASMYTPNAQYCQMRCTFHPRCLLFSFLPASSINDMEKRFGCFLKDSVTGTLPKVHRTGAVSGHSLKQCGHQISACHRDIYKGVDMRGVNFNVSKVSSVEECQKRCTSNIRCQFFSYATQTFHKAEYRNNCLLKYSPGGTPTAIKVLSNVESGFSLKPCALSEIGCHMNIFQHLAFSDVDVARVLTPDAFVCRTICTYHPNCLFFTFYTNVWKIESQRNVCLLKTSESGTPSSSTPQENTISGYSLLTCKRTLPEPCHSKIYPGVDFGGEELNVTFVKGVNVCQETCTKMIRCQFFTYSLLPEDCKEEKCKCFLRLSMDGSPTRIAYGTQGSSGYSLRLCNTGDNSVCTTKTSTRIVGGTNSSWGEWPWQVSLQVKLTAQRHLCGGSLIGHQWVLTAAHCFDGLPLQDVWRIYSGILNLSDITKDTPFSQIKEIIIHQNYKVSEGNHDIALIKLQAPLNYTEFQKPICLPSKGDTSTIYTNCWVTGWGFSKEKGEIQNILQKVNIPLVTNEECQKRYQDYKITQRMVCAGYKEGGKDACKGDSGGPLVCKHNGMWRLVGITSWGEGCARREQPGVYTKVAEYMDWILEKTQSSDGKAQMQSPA

For `C[C@@H]1CCC[C@H](N2CCC(c3c(F)ccc(Cl)c3F)=CC2=O)c2cc(ccn2)-c2c(C#N)cccc2NC1=O` [Example 217], the Ki was 154 nM.
